Measured values taken from PMC7555893, “Structural role of essential light chains in the apicomplexan glideosome” (Communications Biology, 2020).

Target: Pre-complex of TgELC1 with TgMyoA-C (T. gondii) (UniProt O00934)
Experiment: ITC; 200 uM protein (syringe) injected 19 x 2 uL into 20 uM pre-formed complex of light chain and MyoA peptide (cell, 1:1.1); 20 mM HEPES pH 7.5, 150 mM NaCl, 0.5 mM TCEP with 1 mM CaCl2; 25 °C; one-site model

Substance: T. gondii myosin light chain 1, short construct (MLC1-S) (domain or fragment)
- stoichiometry N: 0.92
